Test results as given in patent publication US9932349B2 (priority 2000, dated 2018).

Protein sequences, listed by entry. Tags and fused reporters are not part of them. Lines headed by an entry give the natural chain unless they say otherwise; changes in a name come on top. Residues count along the entry.
UniProt P41145: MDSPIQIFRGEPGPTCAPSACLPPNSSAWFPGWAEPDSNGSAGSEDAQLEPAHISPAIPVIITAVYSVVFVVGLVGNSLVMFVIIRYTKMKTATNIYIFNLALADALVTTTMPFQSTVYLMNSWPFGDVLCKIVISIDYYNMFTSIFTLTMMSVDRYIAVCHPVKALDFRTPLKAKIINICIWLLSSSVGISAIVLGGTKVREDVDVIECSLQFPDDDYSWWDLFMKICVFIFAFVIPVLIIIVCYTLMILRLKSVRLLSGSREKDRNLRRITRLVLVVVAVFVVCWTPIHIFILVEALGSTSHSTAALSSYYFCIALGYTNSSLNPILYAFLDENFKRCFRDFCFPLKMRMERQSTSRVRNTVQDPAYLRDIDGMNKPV
UniProt A0A286XTF2, 1-366: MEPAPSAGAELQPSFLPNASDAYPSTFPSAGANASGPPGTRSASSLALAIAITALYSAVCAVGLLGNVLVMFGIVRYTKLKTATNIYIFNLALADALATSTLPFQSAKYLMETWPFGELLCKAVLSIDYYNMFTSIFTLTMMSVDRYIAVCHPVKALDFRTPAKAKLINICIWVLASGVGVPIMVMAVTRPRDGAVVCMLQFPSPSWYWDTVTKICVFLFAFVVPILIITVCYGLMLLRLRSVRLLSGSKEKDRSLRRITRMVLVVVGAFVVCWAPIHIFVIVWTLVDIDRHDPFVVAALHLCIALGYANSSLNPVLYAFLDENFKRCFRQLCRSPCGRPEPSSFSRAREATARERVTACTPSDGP
UniProt P41144: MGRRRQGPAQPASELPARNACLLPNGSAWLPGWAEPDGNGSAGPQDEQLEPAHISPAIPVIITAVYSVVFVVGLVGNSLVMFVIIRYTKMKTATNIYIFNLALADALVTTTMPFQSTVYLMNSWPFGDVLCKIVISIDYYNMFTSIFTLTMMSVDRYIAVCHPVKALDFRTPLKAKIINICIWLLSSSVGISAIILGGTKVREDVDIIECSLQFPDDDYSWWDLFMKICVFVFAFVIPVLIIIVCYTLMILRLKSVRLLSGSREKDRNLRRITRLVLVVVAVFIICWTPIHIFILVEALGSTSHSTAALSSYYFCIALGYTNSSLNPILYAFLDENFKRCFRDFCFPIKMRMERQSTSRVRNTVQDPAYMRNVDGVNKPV
UniProt P35372, whole entry: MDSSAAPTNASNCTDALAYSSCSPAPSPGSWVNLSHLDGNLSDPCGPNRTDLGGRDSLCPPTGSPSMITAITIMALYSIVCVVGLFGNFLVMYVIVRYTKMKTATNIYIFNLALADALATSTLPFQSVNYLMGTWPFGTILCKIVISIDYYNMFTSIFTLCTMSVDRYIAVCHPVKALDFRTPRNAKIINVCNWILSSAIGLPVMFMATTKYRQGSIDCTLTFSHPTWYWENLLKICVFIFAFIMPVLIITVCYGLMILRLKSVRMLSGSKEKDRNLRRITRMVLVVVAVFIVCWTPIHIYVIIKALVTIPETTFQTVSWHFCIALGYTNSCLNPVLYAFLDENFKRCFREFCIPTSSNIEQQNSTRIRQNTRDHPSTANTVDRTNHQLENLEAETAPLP

What was measured:
human κ opioid receptor = biological target: T1, human κ opioid receptor (Homo sapiens, UniProt P41145); format: binding; conditions: read-out: [3H]U69,593 (κ)
T1 construct: expressed in transfected cells; host or cells: Chinese hamster ovary (CHO) cells

δ opioid receptor = biological target: T2, δ opioid receptor (Cavia porcellus, UniProt A0A286XTF2); format: binding, guinea pig; conditions: read-out: [3H]Naltrindole (δ)
T2 construct: determined in guinea pig brain cells; from tissue; host or cells: guinea pig brain

κ opioid receptor = biological target: T3, κ opioid receptor (Cavia porcellus, UniProt P41144); format: binding, guinea pig; conditions: read-out: [3H]U69,593 (κ)
T3 construct: determined in guinea pig brain cells; from tissue; host or cells: guinea pig brain

human δ opioid receptor = biological target: T4, human δ opioid receptor (Homo sapiens, UniProt P41143); assay: binding to cloned human receptor in CHO cell membranes, [3H]Naltrindole; conditions: Table 5 standards; marked a: chinese hamster ovary
T4 construct: expressed in transfected cells; host or cells: Chinese hamster ovary (CHO) cells
Protocol: The affinities of the compounds of the invention were determined in guinea pig brain cells by the method described in Wentland et al. Biorgan. Med. Chem. Lett. 9. […] CHO cell membranes, expressing the human μ, δ, or κ opioid receptor, were incubated with 12 different concentrations of the compounds in the presence of receptor-specific radioligands at 25° C., in a final volume of 1 ml of 50 mM Tris-HCl, pH 7.5. Nonspecific binding was determined using 1 μM naloxone. Data are the mean value ±S.E.M. from three experiments, performed in triplicate.

human μ opioid receptor = biological target: T5, human μ opioid receptor (Homo sapiens, UniProt P35372); format: binding; conditions: read-out: [3H]DAMGO (μ)
T5 construct: expressed in transfected cells; host or cells: Chinese hamster ovary (CHO) cells

With “Cyclazocine [(±)-Cyclazocine, reference compound]” the Ki (human κ opioid receptor) was 0.07 ± 0.01 nM, the Ki (δ opioid receptor) was 1.1 ± 0.04 nM and the Ki (κ opioid receptor) was 0.18 ± 0.02 nM. For the same substance, the Ki (human δ opioid receptor) was 2 ± 0.22 nM and the Ki (human μ opioid receptor) was 0.16 ± 0.01 nM.
